Measured values as given in publication PMC5374635, “Inhibitory Potential of Constituents from Osmanthus fragrans and Structural Analogues Against Advanced Glycation End Products, α-Amylase, α-Glucosidase, and Oxidative Stress” (Scientific Reports, 2017).

How the values were obtained:
[1] = system: α-glucosidase (EC 3.2.1.20); settings: ratio of IC50 values versus acarbose
[2] = biological target: T1, porcine pancreatic α-amylase (EC 3.2.1.1, type VI) (Sus scrofa, UniProt P00690); assay: α-Amylase inhibition; format: biochemical; settings: means ± SE
T1 construct: purchased Sigma-Aldrich (St. Louis, MO, USA) type VI (catalogue number not given)
T1 sequence (P00690 16-511): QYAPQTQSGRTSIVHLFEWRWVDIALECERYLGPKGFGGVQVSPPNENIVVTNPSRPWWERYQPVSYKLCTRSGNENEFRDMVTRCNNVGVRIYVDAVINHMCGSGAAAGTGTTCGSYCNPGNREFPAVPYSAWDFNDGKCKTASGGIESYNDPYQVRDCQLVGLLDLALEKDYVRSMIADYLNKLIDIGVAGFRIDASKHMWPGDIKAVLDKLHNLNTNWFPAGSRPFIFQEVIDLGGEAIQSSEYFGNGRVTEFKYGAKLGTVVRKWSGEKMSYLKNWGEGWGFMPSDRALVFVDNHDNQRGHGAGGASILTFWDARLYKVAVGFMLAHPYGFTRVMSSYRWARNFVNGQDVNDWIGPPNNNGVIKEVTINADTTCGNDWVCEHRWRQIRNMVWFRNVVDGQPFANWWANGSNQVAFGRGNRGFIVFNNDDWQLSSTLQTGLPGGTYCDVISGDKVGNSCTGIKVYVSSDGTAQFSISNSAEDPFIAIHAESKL
Description: The inhibitory activity of each sample against α-amylase was measured as described previously. Sample (40 μL) dissolved in sodium phosphate buffer (SPB, 20 mM and pH 6.9) with 6 mM NaCl was added to 1.0 U/ml α-amylase (200 μL) in SPB and incubated at 30 °C for 10 min. After 10 min, 400 μL of 0.3% starch solution in SPB was added to each tube. […] Each tube was incubated in boiling water for 20 min and cooled to 27 °C. The reaction was diluted by adding 10 ml distilled water and absorbance at 540 nm was measured using a UV-Vis spectrophotometer. The control contained 20 mM SPB (pH 6.9, 200 μL) instead of α-amylase.

times more active than acarbose against α-glucosidase [1]	Structure (SMILES)	IC50 [2]
2.40 times	CC(=O)C=CC1=C(C)CCCC1(C)C [4-(2,6,6-trimethyl-1-cyclohexenyl)-3-buten-2-one]	
	CC(=O)C=CC1C(C)=CCCC1(C)C (centres unmarked) [4-(2,6,6-trimethyl-2-cyclohexenyl)-3-buten-2-one]	453 µM
